Assay results published in ChEMBL document CHEMBL2331145, “Orvinols with mixed kappa/mu opioid receptor agonist activity” (2013).

Chains of the proteins cited; added tags and fusions are not shown.
UniProt P97266, whole entry: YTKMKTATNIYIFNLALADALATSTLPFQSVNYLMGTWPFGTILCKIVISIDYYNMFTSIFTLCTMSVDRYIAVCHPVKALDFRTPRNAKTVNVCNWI
UniProt P41144, whole entry: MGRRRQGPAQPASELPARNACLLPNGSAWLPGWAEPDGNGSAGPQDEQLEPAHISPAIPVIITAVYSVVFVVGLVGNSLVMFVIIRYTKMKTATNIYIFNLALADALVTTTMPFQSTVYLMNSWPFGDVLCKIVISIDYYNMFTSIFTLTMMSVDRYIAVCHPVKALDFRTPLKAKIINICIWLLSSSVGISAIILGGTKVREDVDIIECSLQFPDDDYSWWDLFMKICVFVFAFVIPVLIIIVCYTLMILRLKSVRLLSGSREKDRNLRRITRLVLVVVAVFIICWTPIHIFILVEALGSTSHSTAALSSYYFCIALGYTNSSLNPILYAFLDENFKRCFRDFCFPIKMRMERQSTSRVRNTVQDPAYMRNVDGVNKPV
UniProt P41143, whole entry: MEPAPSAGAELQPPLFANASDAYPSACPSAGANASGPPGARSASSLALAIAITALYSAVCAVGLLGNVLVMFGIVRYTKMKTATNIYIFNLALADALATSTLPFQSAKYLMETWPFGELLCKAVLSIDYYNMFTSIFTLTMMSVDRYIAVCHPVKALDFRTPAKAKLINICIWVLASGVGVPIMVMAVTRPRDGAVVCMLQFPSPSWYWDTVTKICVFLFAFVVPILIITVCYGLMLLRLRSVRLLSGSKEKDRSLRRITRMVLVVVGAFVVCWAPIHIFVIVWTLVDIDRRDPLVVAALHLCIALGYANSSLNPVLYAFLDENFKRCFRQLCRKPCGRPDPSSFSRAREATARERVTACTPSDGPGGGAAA

How the values were obtained:
Mu-type opioid receptor = Mu-type opioid receptor (Cavia porcellus, UniProt P97266); assay: Displacement of [3H]DAMGO from MOR in Hartley guinea pig membrane
Mus musculus = assay: Antinociceptive activity in sc dosed mouse by PPQ abdominal stretch assay; details: Abdomen
[1] = molecular target: Kappa-type opioid receptor (Cavia porcellus, UniProt P41144); details: Ileum
[2] = molecular target: Delta-type opioid receptor (Homo sapiens, UniProt P41143); assay: Displacement of [3H]-diprenorphine from recombinant DOR (unknown origin) expressed in rat C6 cells

Structure (SMILES)	Ki (Mu-type opioid receptor) [nM]	IC50 [1] [nM]	further results
CCCCC[C@](C)(O)[C@H]1C[C@@]23CC[C@]1(OC)[C@@H]1Oc4c(O)ccc5c4[C@@]12CCN(CC1CC1)[C@@H]3C5	2.7	–	–
CO[C@]12CC[C@@]3(C[C@@H]1[C@](C)(O)CC(C)C)[C@H]1Cc4ccc(O)c5c4[C@@]3(CCN1CC1CC1)[C@H]2O5 [listing 1 of 2 here]	–	–	ED50 (Mus musculus): 0.02 mg/kg
CCC[C@](C)(O)[C@H]1C[C@@]23CC[C@]1(OC)[C@@H]1Oc4c(O)ccc5c4[C@@]12CCN(CC1CC1)[C@@H]3C5	1.3	0.49	–
CCCCC[C@@](C)(O)[C@H]1C[C@@]23CC[C@]1(OC)[C@@H]1Oc4c(O)ccc5c4[C@@]12CCN(CC1CC1)[C@@H]3C5	2.4	12.3	–
CO[C@]12CC[C@@]3(C[C@@H]1[C@](C)(O)CCC(C)C)[C@H]1Cc4ccc(O)c5c4[C@@]3(CCN1CC1CC1)[C@H]2O5 [listing 1 of 2 here]	–	–	Ki [2]: 0.42 nM
CO[C@]12CC[C@@]3(C[C@@H]1[C@](C)(O)CCC(C)C)[C@H]1Cc4ccc(O)c5c4[C@@]3(CCN1CC1CC1)[C@H]2O5 [listing 2 of 2 here]	–	–	ED50 (Mus musculus): 0.023 mg/kg
CO[C@]12CC[C@@]3(C[C@@H]1[C@](C)(O)CC(C)C)[C@H]1Cc4ccc(O)c5c4[C@@]3(CCN1CC1CC1)[C@H]2O5 [listing 2 of 2 here]	–	–	Ki [2]: 0.34 nM
CO[C@]12CC[C@@]3(C[C@@H]1[C@](C)(O)C(C)C)[C@H]1Cc4ccc(O)c5c4[C@@]3(CCN1CC1CC1)[C@H]2O5	0.6	0.52	–
CCC[C@@](C)(O)[C@H]1C[C@@]23CC[C@]1(OC)[C@@H]1Oc4c(O)ccc5c4[C@@]12CCN(CC1CC1)[C@@H]3C5	0.9	–	–
